Our source for the IC50 values is patent publication US20250197382A1, “KIF18A INHIBITOR” (WIGEN BIOMEDICINE TECHNOLOGY (SHANGHAI) CO., LTD., priority 2022, published 2025).

The chains behind the UniProt entries cited, without tags or fusion partners. Residues count along the entry.
UniProt Q8NI77, 1-467 limits assumed: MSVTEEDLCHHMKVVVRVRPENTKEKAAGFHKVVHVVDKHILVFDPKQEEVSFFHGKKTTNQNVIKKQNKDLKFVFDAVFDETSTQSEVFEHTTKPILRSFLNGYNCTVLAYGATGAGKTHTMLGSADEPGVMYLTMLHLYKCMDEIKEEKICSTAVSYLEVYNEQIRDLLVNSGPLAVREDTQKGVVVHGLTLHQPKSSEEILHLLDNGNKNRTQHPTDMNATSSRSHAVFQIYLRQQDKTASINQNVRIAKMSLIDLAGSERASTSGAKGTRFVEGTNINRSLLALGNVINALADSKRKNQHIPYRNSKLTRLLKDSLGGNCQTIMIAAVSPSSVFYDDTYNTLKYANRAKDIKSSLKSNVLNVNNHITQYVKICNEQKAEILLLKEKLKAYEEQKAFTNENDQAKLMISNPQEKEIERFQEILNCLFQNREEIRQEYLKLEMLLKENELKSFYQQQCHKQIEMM
UniProt P02554, whole entry partner: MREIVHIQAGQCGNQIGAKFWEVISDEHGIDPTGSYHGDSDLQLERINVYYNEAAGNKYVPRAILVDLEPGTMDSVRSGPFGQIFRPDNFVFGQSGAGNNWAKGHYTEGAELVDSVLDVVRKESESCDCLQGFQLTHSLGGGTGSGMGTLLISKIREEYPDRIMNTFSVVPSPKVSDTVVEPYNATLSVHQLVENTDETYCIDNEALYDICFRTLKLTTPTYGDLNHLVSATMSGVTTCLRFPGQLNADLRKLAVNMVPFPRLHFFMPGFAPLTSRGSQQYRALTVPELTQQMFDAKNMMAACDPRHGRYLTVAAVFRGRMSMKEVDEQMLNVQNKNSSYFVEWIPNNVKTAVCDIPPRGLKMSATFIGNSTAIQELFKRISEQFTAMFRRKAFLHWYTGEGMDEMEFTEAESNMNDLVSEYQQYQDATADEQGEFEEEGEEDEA
UniProt P02550, whole entry partner: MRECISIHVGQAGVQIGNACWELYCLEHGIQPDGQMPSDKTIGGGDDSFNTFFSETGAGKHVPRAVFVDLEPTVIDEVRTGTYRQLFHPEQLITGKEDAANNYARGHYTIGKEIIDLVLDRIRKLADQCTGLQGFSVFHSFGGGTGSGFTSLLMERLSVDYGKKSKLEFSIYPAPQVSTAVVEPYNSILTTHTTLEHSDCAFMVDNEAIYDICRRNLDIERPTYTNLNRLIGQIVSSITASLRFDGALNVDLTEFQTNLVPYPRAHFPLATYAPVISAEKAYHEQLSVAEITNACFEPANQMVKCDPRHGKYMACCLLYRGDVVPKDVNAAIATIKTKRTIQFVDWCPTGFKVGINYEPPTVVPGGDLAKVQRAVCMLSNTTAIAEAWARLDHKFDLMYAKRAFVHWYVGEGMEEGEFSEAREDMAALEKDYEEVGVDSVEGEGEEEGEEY

Test [1] addresses Recombinant human KIF18A (1-467His-tagged) protein (Homo sapiens (Human), UniProt Q8NI77). The test is described as follows: KIF18A enzyme assay (microtubule-stimulated ATPase activity, ADP-Glo). The settings on record: read-out: inhibitory activity against KIF18A IC50, 30 nM KIF18A, ATP 75 μM. (ADP-Glo turns the ADP formed in a reaction into a luminescent signal.)
A further test has as its system HT-29 cells. The test is described as follows: In vitro anti-proliferative activity against HT-29 cells (intracellular ATP content, 72 h). The settings on record: read-out: anti-proliferative activity against HT-29 cells IC50, 72 h after dosing. The method, then: Biological Example 2. In Vitro Anti-Proliferative Activity of Compounds of the Present Invention Against HT-29 Cells
HT-29 cells were seeded on a 384-well plate at 3000 cells/well. After overnight adherence culture, DMSO or the compounds serially diluted in a 1:5 ratio from 5 μM were added. The viability was assessed 72 h after dosing by measuring the intracellular ATP content. The inhibition percentages of viable cells by the compounds were calculated by comparing with the DMSO group, and the […] values were also calculated.

Another test concerns HCT116 cells. Nature of the test: In vitro anti-proliferative activity against HCT116 cells (intracellular ATP content, 72 h). The following applies: read-out: anti-proliferative activity against HCT116 cells IC50, 72 h after dosing. As for the experimental part:
Biological Example 3. In Vitro Anti-Proliferative Activity of Compounds of the Present Invention Against HCT116 Cells
HCT116 cells were seeded on a 384-well plate at 3000 cells/well. After overnight adherence culture, DMSO or the compounds serially diluted in a 1:5 ratio from 5 μM were added. The viability was assessed 72 h after dosing by measuring the intracellular ATP content. The inhibition percentages of viable cells by the compounds were calculated by comparing with the DMSO group, and the IC50 values were also calculated.

Turning to `O=C(Nc1cc2c(c(N3CCC(F)(F)CC3)c1)OCO2)c1ccc(NS(=O)(=O)CCO)cc1N1CCC2(CC1)CC2`, the values for the IC50 (in test [1]; in the test on HT-29 cells; in the test on HCT116 cells) were less than 0.1 µM, 0.095 µM and more than 10 µM, respectively.

Take `Cn1cnc2c(N3CCC(F)(F)CC3)cc(NC(=O)c3ccc(NS(=O)(=O)CCO)cc3N3CCC4(CC3)CC4)cc21`: the IC50 (in general, the concentration that gives 50% inhibition) in test [1] is less than 0.1 µM.

As for `CN1CCc2cc(NC(=O)c3ccc(S(=O)(=O)NCCO)cc3N3CCC4(CC3)CC4)cc(N3CCC(F)CC3)c21`, the half-inhibitory concentration (IC50) in test [1] was less than 0.1 µM.

As to `C[C@H]1CN(c2cc(C(=O)Nc3ccc(S(=O)(=O)NCCO)cc3N3CCC4(CC3)CC4)cc3c2N(C)CC3)CCO1`, in test [1], the IC50 was less than 0.1 µM.

Take `CN1CCc2cc(NC(=O)c3ccc(NS(=O)(=O)CCO)cc3N3CCC4(CC3)CC4)cc(NC(C)(C)CO)c21`: the IC50 in test [1] is less than 0.1 µM.

For the molecule `C[C@@H]1CN(c2nc(NC(=O)c3ccc(S(=O)(=O)NCCO)cc3N3CCC4(CC3)CC4)cc3c2OCC3)CCO1`, the IC50 in test [1] was less than 0.1 µM.

For `O=C(Nc1cc(N2CCC(F)(F)CC2)n2nccc2c1)c1ccc(NS(=O)(=O)CCO)cc1N1CCC2(CC1)CC2`, the IC50 in test [1] is less than 0.1 µM.

With `CN1CCc2cc(NC(=O)c3ccc(S(=O)(=O)NCCO)cc3N3CCC4(CC3)CC4)nc(N3CCC(F)CC3)c21`, in test [1], the IC50 was less than 0.1 µM.
